{"source": "patent US20090123956A1", "about": "“Measurement of the oxidants-antioxidants balance in liquids” (Samsung Electronics Co., Ltd., priority 2006, published 2009)", "origin": "cited, not measured here", "details": "change in absorbance at 450 nm (reference 620 or 570 nm) at equivalent molar concentration, uric acid = 1", "data": [{"substance": "albumin", "values": [{"measurement": "relative activity in compare with uric acid", "result": "~0.6"}]}]}
